Laboratory results taken from US20230233540A1, “COMBINATION OF ANTIBODY-DRUG CONJUGATE AND CDK9 INHIBITOR” (AstraZeneca UK Limited, priority 2020, published 2023).

Tested on: HER2 cell lines SKBR3, MDA-MB-468, KPL4 (breast cancer) and NCI-N87 (gastric cancer)
Experiment: Cell viability (CellTiter-Glo) of HER2 cancer cell lines after DS-8201 lead-in and AZD4573
Assay type: cell-based
Settings: DS-8201 alone, 3, 30, 300 ng/mL; four cell lines
Method: Following the 6-hour incubation with AZD4573, both drugs were washed out by removing the media, adding and removing fresh phosphate-buffered saline (PBS) 2 times, and replacing the last wash with fresh culture media. The cells were then incubated for another 18 hours before assessment of cell viability using the CellTiter-Glo reagent.

With trastuzumab deruxtecan [DS-8201] the “loss of cell viability” value was “complete loss of viability is not observed”.
